Experimental data published in patent US4938956A, “Synergistic immunostimulating composition and method” (priority 1987, dated 1990).

Key:
[1] = tested on: Bovine gut lamina proprial lymphocytes; assay: In vitro proliferation ([3]H-thymidine) of bovine gut lamina proprial lymphocytes; format: cell-based; details: for Mean Counts Per Minute for Each Triplicate: FK-565 0 μg/ml
[2] = tested on: C57BL/6 mice spleen cells (responder population); format: cell-based
Murine Spleen Cells = assay: Primary in vitro immunization of murine spleen cells (Jerne plaque-forming-cell assay, sheep erythrocyte antigen); format: cell-based, mice; details: for PFC/ml / % POS: ShE +++; for % POS: percentage of positive control
[3] = tested on: spleen cells from OVA-FITC immunized mice; assay: In vitro proliferation ([3]H-thymidine) of spleen cells from OVA-FITC immunized mice; format: cell-based; details: for Mean Cunts Per Minute for Each Triplicate: FK-56 0 μg/ml

IL-2
proliferation ([1]; 3.75 ng/ml rIL-2): nor did they respond | proliferation ([1]; 30 ng/ml rIL-2): maximal proliferation even in the absence of FK-565 | proliferation ([1]; 15 or 30 ng/ml rIL-2): proliferation occurs | Mean Counts Per Minute for Each Triplicate ([1]; IL-2 15 ng/ml): 22326 ± 4118 CPM | Mean Counts Per Minute for Each Triplicate ([1]; IL-2 30 ng/ml): 97502 ± 1331 CPM | effect on one-way MLR [2]: little, if any, effect | formation of plaque-forming-cells (PFCs) (Murine Spleen Cells; added to splenocyte cultures at initiation): augmented the formation of plaque-forming-cells (PFCs) in a dose dependent fashion | PFC/ml (Murine Spleen Cells; rIL-2 0.1 ng/ml, day 3): 160 PFC/ml | % POS (Murine Spleen Cells; rIL-2 0.1 ng/ml, day 3): 128 % POS | PFC/ml (Murine Spleen Cells; rIL-2 0.1 ng/ml, day 4): 3990 PFC/ml | % POS (Murine Spleen Cells; rIL-2 0.1 ng/ml, day 4): 130 % POS | PFC/ml (Murine Spleen Cells; rIL-2 0.1 ng/ml, day 5): 1975 PFC/ml | % POS (Murine Spleen Cells; rIL-2 0.1 ng/ml, day 5): 56 % POS | PFC/ml (Murine Spleen Cells; rIL-2 1 ng/ml, day 3): 930 PFC/ml | % POS (Murine Spleen Cells; rIL-2 1 ng/ml, day 3): 744 % POS | PFC/ml (Murine Spleen Cells; rIL-2 1 ng/ml, day 4): 7720 PFC/ml | % POS (Murine Spleen Cells; rIL-2 1 ng/ml, day 4): 252 % POS | PFC/ml (Murine Spleen Cells; rIL-2 1 ng/ml, day 5): 5125 PFC/ml | % POS (Murine Spleen Cells; rIL-2 1 ng/ml, day 5): 145 % POS | PFC/ml (Murine Spleen Cells; rIL-2 10 ng/ml, day 3): 1840 PFC/ml | % POS (Murine Spleen Cells; rIL-2 10 ng/ml, day 3): 1472 % POS | PFC/ml (Murine Spleen Cells; rIL-2 10 ng/ml, day 4): 9380 PFC/ml | % POS (Murine Spleen Cells; rIL-2 10 ng/ml, day 4): 307 % POS | PFC/ml (Murine Spleen Cells; rIL-2 10 ng/ml, day 5): 7200 PFC/ml | % POS (Murine Spleen Cells; rIL-2 10 ng/ml, day 5): 204 % POS | Mean Cunts Per Minute for Each Triplicate ([3]; IL-2 0.3 μg/ml, OVA-FITC 0 μg/ml): 15458 ± 788 CPM | Mean Cunts Per Minute for Each Triplicate ([3]; IL-2 0.3 μg/ml, OVA-FITC 2.5 μg/ml): 40728 ± 2191 CPM | Mean Cunts Per Minute for Each Triplicate ([3]; IL-2 0.3 μg/ml, OVA-FITC 5.0 μg/ml): 48726 ± 1660 CPM | Mean Cunts Per Minute for Each Triplicate ([3]; IL-2 0.3 μg/ml, OVA-FITC 10.0 μg/ml): 69954 ± 2933 CPM | Mean Cunts Per Minute for Each Triplicate ([3]; IL-2 0.6 μg/ml, OVA-FITC 0 μg/ml): 16645 ± 127 CPM | Mean Cunts Per Minute for Each Triplicate ([3]; IL-2 0.6 μg/ml, OVA-FITC 2.5 μg/ml): 44010 ± 170 CPM | Mean Cunts Per Minute for Each Triplicate ([3]; IL-2 0.6 μg/ml, OVA-FITC 5.0 μg/ml): 51233 ± 1926 CPM | Mean Cunts Per Minute for Each Triplicate ([3]; IL-2 0.6 μg/ml, OVA-FITC 10.0 μg/ml): 45687 ± 3211 CPM | increase in CPM ([3]; increasing concentrations of rIL-2 added to cultures, no antigen): 8 fold | increase over background CPM ([3]; rIL-2 added to cultures containing 5 μg/ml OVA-FITC): 2.5 fold
